Measured values from PMC4895914 (2014).

What was measured:
Assay in all cases: fluorescence polarization
[1] = molecular target: T1, 3m* (not fully specified; reading uncertain)
T1 chain: {FITC-PEG}-PL[His(π-(CH2)8Ph,τ-CH2CH2CH(OH)CH2OH)]S[pT]

[2] = molecular target: T2, 2a* (not fully specified; reading uncertain)
T2 chain: {FITC-PEG}-PL[His(π-(CH2)8Ph)]S[pT]

[3] = molecular target: T3, 3c* (not fully specified (residue 3); reading uncertain; also: His N(tau)-hydroxyalkyl, not given here)
T3 chain: {FITC-PEG}-PLHS[pT]

B1: Plk1 PBD PBD (protein)
chain: SIAPSSLDPSNRKPLTVLNKGLENPLPERPREKEEPVVRETGEVVDCHLSDMLQQLHSVNASKPSERGLVRQEEAEDPACIPIFWVSKWVDYSDKYGLGYQLCDNSVGVLFNDSTRLILYNDGDSLQYIERDGTESYLTVSSHPNSLMKKITLLKYFRNYMSEHLLKAGANITPREGDELARLPYLRTWFRTRSAIILHLSNGSVQINFFQDHTKLILCPLMAAVTYIDEKRDFRTYRLSLLEEYGCCKELASRLRYARTMVDKLLSSRSASNRLKAS
Kd [1]: 3 nM
Kd [2]: 12 nM
Kd [3]: 2 nM

Square brackets hold non-standard residues; d marks the D form. Ends that are not written are not given here. * marks the point of attachment. His(π-(CH2)8Ph,τ-CH2CH2CH(OH)CH2OH) = His N(pi)-(CH2)8Ph and N(tau)-CH2CH2CH(OH)CH2OH; FITC = O=C1OC2(c3ccc(O)cc3Oc3cc(O)ccc32)c2ccc(NC(=S)*)cc21; His(π-(CH2)8Ph) = N[C@@H](Cc1cncn1CCCCCCCCc1ccccc1)C(=O)O; pT = C[C@@H](OP(=O)(O)O)[C@H](N)C(=O)O; PEG = not defined here
